{"source": "paper PMC4481117", "about": "(Molecular Pain, 2015)", "origin": "cited, not measured here", "test_system": "opioid receptor", "set-up": "method as in PMID 7642746, PMID 6207329, PMID 2844685", "conditions": "cited from earlier work", "text": "Apart from their effects on κ-opioid receptors on neurons, Dyn A exerts numerous effects on leukocytes, particularly myeloid cells. […] In addition, Dyn A (residues 1–13) and Dyn A (residues 1–9) stimulate ..."}
{"smiles": "C=CCN1CC[C@]23c4c5ccc(O)c4O[C@H]2C(=O)CC[C@@]3(O)[C@H]1C5", "note": "[naloxone]", "values": [{"measurement": "Block of phagocytosis, degranulation and chemotaxis by naloxone", "result": "could not be blocked or were blocked partially"}]}
